## Antibody variant affinities, Ab-14 light chain, assay B

Target peptide (SARS-CoV-2 spike, HR2 region): PDVDLGDISGINAS

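The parent was found by panning a naive human phage display library on the peptide. Designed CDR sequences, proposed from the first random library and measured here. Group labels follow the data file (Ctrl: baseline library sampled from a position-specific scoring matrix, with some repeated check sequences; En: ensemble of fine-tuned language models; GP: Gaussian process model; HC: hill climbing; Gen: genetic algorithm; Gibbs: Gibbs sampling; a sequence that several methods proposed may carry one label only). In AlphaSeq, yeast of one mating type display the scFv and yeast of the other type display the target. Binding brings cells together so that they mate, and sequencing counts the barcode pairs among the diploids. Read counts were normalised to the haploid input and turned into Kd by a linear fit to BCL2-family pairs of known affinity, for each replicate. Each pool was mated in six replicate cultures.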

Ab-14 is the parent antibody, in scFv form: VH, then three GGGGS repeats, then VL. The heavy chain is unchanged in all variants.
VH: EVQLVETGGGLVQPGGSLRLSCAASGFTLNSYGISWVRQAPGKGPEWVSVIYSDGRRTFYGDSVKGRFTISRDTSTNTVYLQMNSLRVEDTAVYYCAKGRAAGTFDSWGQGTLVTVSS
VL: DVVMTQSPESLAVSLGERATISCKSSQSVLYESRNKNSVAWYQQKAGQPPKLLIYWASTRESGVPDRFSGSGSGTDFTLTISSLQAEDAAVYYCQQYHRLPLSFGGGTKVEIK

Each variant is given by its three light chain CDRs, as the data file delimits them; those of the parent are KSSQSVLYESRNKNSVA, WASTRES, QQYHRLPLS.
Affinities are written as log10 Kd with Kd in nM; a lower number is a better binder.
A mean of the replicates is given; it leaves out those without a signal.
A pair that was not seen in any replicate is written "no signal"; this usually means weak binding, but a binder can also be missed.
Three control strains display no target. For all light chain designs, 4% of the pairings with them gave a signal, with a median of 2.64 and one signal in twenty below 1.59, so weak values seen in few replicates may be background. The control count says in how many pairings with the empty strains this scFv gave a signal.
The parent sequence was in this pool as ten entries: three were never detected, three once, and four in most replicates, with averages from 0.34 to 2.37.
The range of this assay differs from that of the first round, and the authors advise against merging the two.
The authors' rule: three or more of the six replicates give a measured affinity, fewer mean a poor binder.

CDR-L1,CDR-L2,CDR-L3,group,mean log10 Kd (nM),detected,empty controls
KFSQSVMYMSSVYNSVA,QMSTRAE,QQYNRLPLS,En_HC,0.52,6/6,1/18
KSSMSYLLEKRNKNSVA,EASTRES,QQYHRLPLS,GP_HC,0.18,6/6,2/18
KSSQSVLIESENKNSVA,WASTRES,QQYHRLPLS,Ctrl,0.55,6/6,1/18
KLPQSHLYESRNKNAVA,QASTRES,QQYHRLPLS,GP_Gen,-0.05,6/6,0/18
KLGGVTSYEMQNKNSVA,QMTTREK,QQYHRLPLS,En_HC,0.14,6/6,2/18
KLMCSMEYESRNKNSVA,NASTREE,QQYHRLPLV,GP_Gibbs,-0.21,6/6,2/18
KSSQSVLYESRNDNSVA,DASTRES,QQYHRLPLS,Ctrl,0.16,6/6,2/18
KSSQSVEYESRAKNSVA,QASTRES,QQYHRLPLS,Ctrl,1.03,6/6,2/18
KLSQSVLYESRNKNAVA,HASTRES,QQYHRLPLS,GP_Gen,-0.08,6/6,0/18
KSSQSVLLESRNYNSVA,GAYTRES,QQYHRLPLS,Ctrl,0.97,6/6,1/18
QIYQAMHTLMNAKNNIA,DVTNRNN,QQYHRLPLS,En_Gen,0.72,6/6,1/18
QLLMATMQGTYNRNSVA,HAETRND,QSYHRLPLS,En_HC,2.35,4/6,0/18
KLSQSVLYEERNKNSVA,SASQRES,QQYHRLPLS,GP_Gen,-0.29,6/6,0/18
KLYQVTGYESYVRNSVA,QMSTRAE,QDYHRLPLS,En_HC,0.61,6/6,0/18
KVSEMSAFLSSNRNSVA,DNSTRGS,QQYHRLPLS,En_HC,1.22,6/6,2/18
KLGQMTGIQSHNKNSLA,DANRRES,QQYHRLPLS,En_HC,0.07,6/6,1/18
KSSQSVSYESRNKNSVA,WAMTRES,QQYHRLPLS,Ctrl,1.73,1/6,2/18
KLSGSMLYESRNKNSVA,GASTRES,QQYHRLPLS,GP_Gen,-0.48,6/6,2/18
SLFFNDDQLQEQSNNIA,HASLRSV,QQYMHLPLV,En_Gibbs,0.58,6/6,0/18
KSSQSLLYESRNKNSVA,GASTRES,QQYHRLPLS,Ctrl,0.10,6/6,0/18
SLHMMPPVGYALNANVA,NASQLFS,QQYFRLPLT,En_Gibbs,1.36,6/6,0/18
KYSQEKLYESRNKNSVA,DASTRES,QQYHRLPLS,GP_HC,-0.05,6/6,0/18
KSSQSVLYESRNKNSVA,EASTREA,QQYHRLPLA,Ctrl,2.79,4/6,0/18
KQQQSVLYESRNKNSVA,DASTRES,QQYQRLPLS,GP_HC,-0.67,6/6,0/18
MLSMMEQHLGDMMHNVA,DANVAKM,QDYFRLPLM,En_Gibbs,2.11,6/6,0/18
MISQLYNMGSFAINSVA,QASQRNE,QQYDRLPLE,En_Gen,1.21,6/6,1/18
KLSQSFLYESRNKNAVA,GASTRES,QQYHRLPLS,GP_HC,0.83,6/6,0/18
KLSMTTEMEHVNRNSVA,ELVTRIS,QQYNRLPLS,En_Gen,1.15,6/6,0/18
KLLQSELDESRNDNSVA,NASHRLS,QQYHRLPLS,GP_Gibbs,0.50,6/6,0/18
KSSPSYLYESRNKNSVA,AASTRES,QQYHRLPLS,GP_HC,0.43,6/6,0/18
KQSMSVMMGSRNKNSVA,SAHKREA,QQYHRLPLS,GP_Gibbs,3.36,3/6,1/18
MISNVMNTLTRQGNNVA,DLQNREK,QQYFRLPLS,En_Gen,0.95,6/6,2/18
SISQSVLQESRNKNSVA,WASTRES,QQYHRLPLS,Ctrl,1.29,6/6,0/18
MMSQVTGQGTRHRNNVA,QTSTREP,QQYDRLPLV,En_Gen,1.16,6/6,1/18
MISQLYNMGQFAINSVA,QASQRNM,QQYDRLPLM,En_Gen,1.31,5/6,0/18
TLSQMSGVEAVKHNNVA,ENSTREK,QQYDRLPLS,En_Gen,3.04,2/6,1/18
KLSQSDLYESRQKNSVA,NASQRES,QQYHRLPLS,GP_Gen,0.19,6/6,2/18
KGSQSVLYESRNKNSVA,HASTRLE,QQYHELKLS,Ctrl,1.17,1/6,1/18
NLVSKADYMDSERQNIA,NMDQRNT,QQYFHLPLT,En_Gibbs,0.73,6/6,1/18
MISQLQNMGSFAINSVA,QASLRNE,QQYDRLPLM,En_Gen,1.84,6/6,1/18
RISRHVYDETNTYENVA,NEHIRAN,QQYSRLPLS,En_Gibbs,-0.03,6/6,1/18
MISQLYNMGQFAINSVA,QAETRNE,QQYDRLPLE,En_Gen,0.63,6/6,0/18
MISDMGLHDSRMQNSVA,NNSTREA,QQYHRLPLS,En_HC,1.37,6/6,1/18
KLVQSWLYLSRNHNAVA,HASQRCS,QDYHRLPLS,GP_Gibbs,0.92,6/6,0/18
KIEGSMLYESRNKNSIA,NASTREV,QQYHRLPLS,GP_Gibbs,-0.27,6/6,0/18
KISQVAMMTGKAKNSVA,NAYTRVQ,QQYHRLPLS,En_HC,0.61,6/6,4/18
KFYQSVLYESRNKNSVA,NASTRES,QQYHRLPLS,GP_Gen,0.81,6/6,0/18
KSAESVLYESRNKNSVA,WASTRES,QQYHRLPLS,Ctrl,1.70,2/6,0/18
KVQQSVLYESRNKNNVA,HASTRED,QQYHRLPLS,GP_HC,-0.36,6/6,0/18
SITQLVGYGQRNKNSVA,QMSTREN,QQYDRLPLS,En_HC,0.12,6/6,1/18
HSSPSDLYESRNKNSVA,NASTRES,QQYHRLPLS,GP_HC,0.13,6/6,2/18
TISQMTSWQSNKKNSVA,EVTLREE,QQYDRLPLI,En_Gen,0.75,6/6,2/18
KLSMSVLMESRNKNSVA,ENSTRES,QHYHRLPLS,En_HC,1.82,6/6,0/18
KSSQSVLYESRNHNSVA,EASTRES,QQYARLPLS,Ctrl,0.06,6/6,1/18
KLSQSVLYESRNKNSVA,DASTRLS,QDYHRLPLS,GP_Gen,-0.33,6/6,0/18
NLVEDEGTNQAKMGNIA,SVDQRMD,QQYQRLPLI,En_Gibbs,0.36,6/6,0/18
KLSQSWGYESRNKNSVA,GASTRES,QQYHRLPLS,GP_HC,0.03,6/6,3/18
KDSQSWLYESRNKNSVA,GASTRES,QQYHRLPLS,GP_HC,0.04,6/6,0/18
KLTSITGTEKVHGNSVA,EMATRER,QQYNRLPLA,En_Gen,0.11,6/6,0/18
KLSMETATLTGQMDSIA,HVEIRWA,QQYHKLPLI,En_Gibbs,no signal,0/6,0/18
KIDSQYQHGTDQKKAMA,DSSVSTQ,QQYSRLPLS,En_Gibbs,0.40,6/6,0/18
RMNWHMSGATEAKNSMA,GVEHRAN,QQYDRLPLS,En_Gibbs,0.25,6/6,0/18
KLSQSWLYEARNSNSVA,AASQRED,QQYHRLPLS,GP_Gibbs,0.39,6/6,2/18

Values reported by Li et al. 2023, doi:10.1038/s41467-023-39022-2 (FLAb copy).